In patent publication US12018299B2, “Methods and kits for quantifying adenosine-containing molecules” (priority 2017, dated 2024) one finds Ki data, which are given here for 2 compounds.

Protein sequences, listed by entry. Tags and fused reporters are not part of them.
UniProt Q9ZMY2, whole entry D198N: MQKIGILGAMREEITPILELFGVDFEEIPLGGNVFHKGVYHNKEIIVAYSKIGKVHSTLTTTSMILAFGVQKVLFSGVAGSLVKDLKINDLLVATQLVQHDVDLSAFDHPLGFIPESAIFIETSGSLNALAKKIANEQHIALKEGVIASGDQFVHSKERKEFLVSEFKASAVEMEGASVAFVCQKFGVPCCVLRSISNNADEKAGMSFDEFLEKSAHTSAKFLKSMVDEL

The test deals with MTAN-D198N (Helicobacter pylori, UniProt Q9ZMY2, D198N). As to conditions: read-out: Ki from competitive FP assay; 11.3 nM AdoHcy-TAMRA, 50 nM MTAN-D198N.

The Ki is the equilibrium dissociation constant of an inhibitor or competing ligand from its target. As to `Nc1ncnc2c1ncn2[C@@H]1O[C@H](CSCC[C@H](N)C(=O)O)[C@@H](O)[C@H]1O` [AdoHcy, S-adenosylhomocysteine], the inhibition constant Ki was determined as 29.5 ± 3.6 nM.
As for `C[S+](CC[C@H](N)C(=O)O)C[C@H]1O[C@@H](n2cnc3c(N)ncnc32)[C@H](O)[C@@H]1O` (some centres unmarked) [AdoMet, S-adenosyl methionine], the figure is 989 ± 160 nM.
